## Antibody variant affinities, Ab-14 light chain, assay B

Values reported by Li et al. 2023, doi:10.1038/s41467-023-39022-2 (FLAb copy).

Target peptide (SARS-CoV-2 spike, HR2 region): PDVDLGDISGINAS

The variants keep the heavy chain, the linker and the frameworks of Ab-14 (scFv order VH, the linker GGGGSGGGGSGGGGS, VL).
VH: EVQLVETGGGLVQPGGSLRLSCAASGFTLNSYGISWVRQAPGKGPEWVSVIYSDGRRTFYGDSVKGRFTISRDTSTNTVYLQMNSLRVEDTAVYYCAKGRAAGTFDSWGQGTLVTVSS
VL: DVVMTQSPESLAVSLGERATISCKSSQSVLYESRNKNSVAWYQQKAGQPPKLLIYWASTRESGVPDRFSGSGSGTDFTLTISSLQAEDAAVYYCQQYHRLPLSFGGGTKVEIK

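Phage display of a naive human antibody library on the peptide gave the parent. Designed CDR sequences, proposed from the first random library and measured here. Several design methods are mixed in this list. The scFvs were displayed on barcoded MATa yeast, the peptide on MATalpha yeast. After mating in shaken culture at 30 °C for 16 h, diploids were selected and their barcode pairs sequenced. Scores were corrected for input abundance and mapped to Kd with protein pairs of known affinity run in the same pool. Each pool was mated in six replicate cultures.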

The whole VL of each variant is written out.
This list holds designs with more than six substitutions.
The read-out is the apparent dissociation constant on a log10 scale (nM): the lower, the stronger.
Replicates are averaged; those with no signal do not enter the mean.
"nd" means that the variant was in the library but no mating with the target was seen in that replicate; the authors take this as a sign of poor binding, and no number exists.
Entries are sorted by rising average, undetected variants last.

| VL | log10 Kd (nM) by replicate | mean, log10 nM | signal with controls |
|---|---|---|---|
| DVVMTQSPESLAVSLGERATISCKVSQLELYESRNANNVAWYQQKAGQPPKLLIYNASQRENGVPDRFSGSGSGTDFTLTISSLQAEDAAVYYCQQYHRLPLSFGGGTKVEIK | 0.05 / 0.05 / 0.10 / -0.01 / -0.07 / 0.29 | 0.07 | 0 of 18 |
| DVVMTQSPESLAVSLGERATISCQIYQAMHTLSQQKDNVAWYQQKAGQPPKLLIYDVNERGRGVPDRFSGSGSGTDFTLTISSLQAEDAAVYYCQQYFRLPLSFGGGTKVEIK | 0.45 / 0.07 / -0.11 / -0.02 / 0.05 / 0.11 | 0.09 | 0 of 18 |
| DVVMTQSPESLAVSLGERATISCTISQVMNTLTRNTNNVAWYQQKAGQPPKLLIYDLTERTKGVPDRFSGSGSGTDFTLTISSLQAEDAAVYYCQQYFRLPLSFGGGTKVEIK | 0.22 / 0.15 / 0.23 / 0.04 / 0.32 / 0.34 | 0.22 | 2 of 18 (3.08) |
| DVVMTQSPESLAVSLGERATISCMMSQVWGMGQRHINNVAWYQQKAGQPPKLLIYQTSTREPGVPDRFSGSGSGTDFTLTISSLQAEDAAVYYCQQYDRLPLIFGGGTKVEIK | 0.27 / 0.41 / 0.17 / 0.19 / 0.30 / 0.43 | 0.29 | 0 of 18 |
| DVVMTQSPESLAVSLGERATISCFLSQSWLYEDRPKNSVAWYQQKAGQPPKLLIYNASTRMSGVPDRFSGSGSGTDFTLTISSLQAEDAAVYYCQQYHRLPLSFGGGTKVEIK | 0.50 / 0.45 / 0.12 / 0.21 / 0.27 / 0.40 | 0.32 | 0 of 18 |
| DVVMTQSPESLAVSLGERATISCKFMQMVMQEDRNKNSVAWYQQKAGQPPKLLIYNASTRMQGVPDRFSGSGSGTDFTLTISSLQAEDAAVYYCQQYHRLPLSFGGGTKVEIK | 0.71 / 0.44 / 0.04 / 0.33 / 0.35 / 0.48 | 0.39 | 2 of 18 (3.51) |
| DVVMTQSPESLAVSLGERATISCKFQQSVMYEDRVKNSVAWYQQKAGQPPKLLIYNASDRMSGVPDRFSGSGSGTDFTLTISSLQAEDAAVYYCQQYHRLPLSFGGGTKVEIK | 0.44 / 0.42 / 0.41 / 0.21 / 0.65 / 0.30 | 0.41 | 1 of 18 (2.48) |
| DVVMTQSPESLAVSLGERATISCMISDLTMHGSRNKNSVAWYQQKAGQPPKLLIYDSSTRGSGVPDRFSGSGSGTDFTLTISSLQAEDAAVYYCQQYHRLPLSFGGGTKVEIK | 0.46 / 0.79 / -0.11 / 0.49 / 0.64 / 0.40 | 0.45 | 0 of 18 |
| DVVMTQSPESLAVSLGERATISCKLSQSNKYESRMKNSVAWYQQKAGQPPKLLIYNASQRMQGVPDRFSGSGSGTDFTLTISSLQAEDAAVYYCQQYHRLPLSFGGGTKVEIK | 0.88 / 0.84 / 0.57 / 0.41 / 0.68 / 0.51 | 0.65 | 4 of 18 (3.84) |
| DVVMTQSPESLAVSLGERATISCMLLQATMYGERNRNSVAWYQQKAGQPPKLLIYHASTREDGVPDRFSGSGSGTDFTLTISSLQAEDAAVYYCQEYHRLPLIFGGGTKVEIK | 0.66 / 0.39 / 0.65 / 0.71 / 0.78 / 0.90 | 0.68 | 0 of 18 |
| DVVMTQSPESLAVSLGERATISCKISQLVNFLGKDKNSVAWYQQKAGQPPKLLIYQMSTRESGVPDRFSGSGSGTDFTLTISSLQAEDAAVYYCQQYDRLPLSFGGGTKVEIK | 0.50 / 0.76 / 0.60 / 0.92 / 0.93 / 0.48 | 0.70 | 1 of 18 (4.13) |
| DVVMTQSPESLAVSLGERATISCKLASVTGTEKVHGSNVAWYQQKAGQPPKLLIYEMETREQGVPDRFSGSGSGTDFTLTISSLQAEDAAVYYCQQYNRLPLSFGGGTKVEIK | 0.95 / 0.96 / 1.25 / 0.95 / 1.00 / 0.82 | 0.99 | 3 of 18 (2.52) |
| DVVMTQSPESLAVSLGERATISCNIYQSMNFLGRVMNSIAWYQQKAGQPPKLLIYDASTLPDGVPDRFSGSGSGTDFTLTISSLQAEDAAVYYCQQYHRLPLSFGGGTKVEIK | 0.76 / 0.70 / 1.18 / 1.95 / 0.81 / 0.99 | 1.07 | 1 of 18 (2.38) |
| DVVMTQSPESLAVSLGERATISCHIDSQEVGTIGAESNVAWYQQKAGQPPKLLIYETNTLLYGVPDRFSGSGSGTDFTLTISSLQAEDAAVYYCQQYSKLPLMFGGGTKVEIK | 0.97 / 1.13 / 1.11 / 1.18 / 0.84 / 1.59 | 1.14 | 2 of 18 (3.06) |
| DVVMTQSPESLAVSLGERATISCHISMSVGMTQFNKNSVAWYQQKAGQPPKLLIYENSTRENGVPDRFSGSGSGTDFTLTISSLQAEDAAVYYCQQYDRLPLSFGGGTKVEIK | 1.05 / 1.23 / 0.96 / 1.51 / 1.01 / 1.39 | 1.19 | 1 of 18 (2.48) |
| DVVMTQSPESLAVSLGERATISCALALTLWQVDSQMNNIAWYQQKAGQPPKLLIYEGMLRESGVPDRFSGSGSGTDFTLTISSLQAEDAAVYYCQQYNRLPLGFGGGTKVEIK | nd / nd / nd / 1.49 / 0.71 / 1.70 | 1.30 | 1 of 18 (1.89) |
| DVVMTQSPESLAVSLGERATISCTISQSMLMTGLNRNSVAWYQQKAGQPPKLLIYQAEERIEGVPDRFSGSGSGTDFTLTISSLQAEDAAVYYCQQYHRLPLSFGGGTKVEIK | 1.47 / nd / 0.95 / nd / 2.87 / 2.02 | 1.83 | 0 of 18 |
| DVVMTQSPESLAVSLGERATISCKSQQSVLNESRNIQSVAWYQQKAGQPPKLLIYHASTRPPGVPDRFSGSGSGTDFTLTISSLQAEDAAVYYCQQPHRLPESFGGGTKVEIK | nd / nd / nd / nd / nd / nd | nd | 1 of 18 (1.58) |

Repeated from above, the 2 best binders with a signal in all replicates:

{"VL": "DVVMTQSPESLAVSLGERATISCKVSQLELYESRNANNVAWYQQKAGQPPKLLIYNASQRENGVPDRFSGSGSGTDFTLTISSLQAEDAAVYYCQQYHRLPLSFGGGTKVEIK", "log10 Kd (nM) by replicate": "0.05 / 0.05 / 0.10 / -0.01 / -0.07 / 0.29", "mean, log10 nM": "0.07", "signal with controls": "0 of 18"}
{"VL": "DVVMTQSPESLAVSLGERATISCQIYQAMHTLSQQKDNVAWYQQKAGQPPKLLIYDVNERGRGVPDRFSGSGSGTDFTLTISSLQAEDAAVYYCQQYFRLPLSFGGGTKVEIK", "log10 Kd (nM) by replicate": "0.45 / 0.07 / -0.11 / -0.02 / 0.05 / 0.11", "mean, log10 nM": "0.09", "signal with controls": "0 of 18"}

The range of this assay differs from that of the first round, and the authors advise against merging the two.
As a blank, each scFv also met three strains without target: over all light chain designs, 4% of these pairings were detected, typically at 2.64 and seldom below 1.59. Also given: how often the same scFv was detected with the empty control strains, with their mean in brackets.
The parent sequence was in this pool as ten entries: three were never detected, three once, and four in most replicates, with averages from 0.34 to 2.37.
The authors' rule: three or more of the six replicates give a measured affinity, fewer mean a poor binder.